{
  "sequences": {"note": "Chains of the proteins cited; added tags and fusions are not shown. Lines headed by an entry give the natural chain unless they say otherwise; changes in a name come on top.", "UniProt Q9HC16": "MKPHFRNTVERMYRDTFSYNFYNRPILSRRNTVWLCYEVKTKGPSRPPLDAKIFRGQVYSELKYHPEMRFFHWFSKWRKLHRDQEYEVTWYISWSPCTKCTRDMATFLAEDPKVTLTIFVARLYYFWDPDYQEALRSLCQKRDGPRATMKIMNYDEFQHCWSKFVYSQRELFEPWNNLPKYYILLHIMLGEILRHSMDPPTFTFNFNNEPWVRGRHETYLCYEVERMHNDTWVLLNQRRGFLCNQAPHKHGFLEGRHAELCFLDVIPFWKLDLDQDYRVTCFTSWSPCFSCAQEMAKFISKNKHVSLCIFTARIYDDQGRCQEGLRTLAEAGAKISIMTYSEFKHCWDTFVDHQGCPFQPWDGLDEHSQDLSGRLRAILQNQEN"},
  "source": "PubChem BioAssay AID493152",
  "about": "(Sanford-Burnham Center for Chemical Genomics, 2011)",
  "biological_target": "DNA dC->dU-editing enzyme APOBEC-3G (Homo sapiens) (UniProt Q9HC16)",
  "assay": "APOBEC3G deaminase inhibitor retest, confirmation, biochemical, fluorescence, single-stranded DNA substrate, single concentration (AID 493152)",
  "conditions": "recombinant A3G ssDNA deaminase, UDG/FAM-TAMRA fluorescence; at 20 µM; stronger effect = higher value",
  "note": "The entries are a selection whose mix differs from that of the whole data set. Activity calls are given as the source filed them.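 The calls were made as follows: active = inhibition reaching a set limit in any replicate at 20 µM, the limit being 80% of the first screen's; inactive = the rest.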",
  "data": [
    {"smiles": "O=P(Nc1nccs1)(c1ccccc1)c1nc2ccccc2s1", "note": "(configuration not stated)", "values": [
      {"measurement": "inhibition", "value": "active: 82.4%"}
    ]},
    {"smiles": "CS(=O)(=O)c1cc([N+](=O)[O-])c2no[n+]([O-])c2c1", "values": [
      {"measurement": "inhibition", "value": "active: 44.1%"}
    ]}
  ]
}
